Data reported in ChEMBL document CHEMBL1149641, “Functionalization of the 6,14-bridge of the orvinols. Part 3: preparation and pharmacological evaluation of 18- and 19-hydroxyl substituted orvinols” (2007).

Amino acid sequences for entries named in this document (tags omitted).
UniProt P41143, whole entry: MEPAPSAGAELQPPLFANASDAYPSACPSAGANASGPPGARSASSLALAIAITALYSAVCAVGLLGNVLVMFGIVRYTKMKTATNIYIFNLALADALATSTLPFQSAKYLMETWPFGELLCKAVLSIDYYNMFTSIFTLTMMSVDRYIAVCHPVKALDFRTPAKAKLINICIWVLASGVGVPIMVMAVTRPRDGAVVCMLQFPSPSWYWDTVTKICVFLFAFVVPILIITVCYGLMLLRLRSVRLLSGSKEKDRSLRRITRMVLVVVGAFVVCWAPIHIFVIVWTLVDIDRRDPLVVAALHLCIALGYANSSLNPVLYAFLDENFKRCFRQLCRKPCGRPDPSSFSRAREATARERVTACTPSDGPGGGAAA
UniProt P41145, whole entry: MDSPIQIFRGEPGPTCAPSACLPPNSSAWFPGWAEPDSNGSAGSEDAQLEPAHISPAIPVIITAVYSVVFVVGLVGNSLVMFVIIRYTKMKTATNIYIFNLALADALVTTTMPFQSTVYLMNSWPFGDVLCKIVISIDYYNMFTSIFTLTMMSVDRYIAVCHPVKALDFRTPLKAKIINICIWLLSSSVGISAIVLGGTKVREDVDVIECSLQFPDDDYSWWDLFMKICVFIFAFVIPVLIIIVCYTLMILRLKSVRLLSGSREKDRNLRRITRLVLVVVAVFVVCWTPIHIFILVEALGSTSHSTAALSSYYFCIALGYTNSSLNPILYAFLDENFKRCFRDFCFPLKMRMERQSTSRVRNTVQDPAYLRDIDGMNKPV

How the values were obtained:
[1] = molecular target: Delta-type opioid receptor (Homo sapiens) (UniProt P41143); assay: Agonist activity at human delta opioid receptor expressed in CHO membrane assessed as stimulation of [35S]GTP-gamma-S binding relative to SNC80
[2] = molecular target: Kappa-type opioid receptor (Homo sapiens) (UniProt P41145); assay: Agonist activity at human kappa opioid receptor expressed in CHO membrane assessed as stimulation of [35S]GTP-gamma-S binding relative to dynorphin A

## CO[C@]12CC(O)[C@@]3(C[C@@H]1[C@@H](C)O)[C@H]1Cc4ccc(O)c5c4[C@@]3(CCN1C)[C@H]2O5 (stereo partly drawn)
[1]
  Activity: 1.4%
[2]
  Activity: 0.47%

## CO[C@]12C(O)C[C@@]3(C[C@@H]1[C@@H](C)O)[C@H]1Cc4ccc(O)c5c4[C@@]3(CCN1C)[C@H]2O5 (stereo partly drawn)
[1]
  Activity: 1.3%
[2]
  Activity: 0.75%

## CO[C@]12CC(O)[C@@]3(C[C@@H]1[C@H](C)O)[C@H]1Cc4ccc(O)c5c4[C@@]3(CCN1C)[C@H]2O5 (stereo partly drawn)
[1]
  Activity: 1.4%
[2]
  Activity: 0.25%

## CO[C@]12C(O)C[C@@]3(C[C@@H]1[C@H](C)O)[C@H]1Cc4ccc(O)c5c4[C@@]3(CCN1C)[C@H]2O5 (stereo partly drawn)
[1]
  Activity: 1.2%
[2]
  Activity: 0.55%
